# According to US9914732B2, “Diazabicyclo[4.3.1]decane derivatives for treatment of psychiatric disorders” (Max-Planck-Gesellschaft zur Forderung der Wissenschaften …, priority 2014, dated 2018):
# The chains behind the UniProt entries cited, without tags or fusion partners. Residues count along the entry.
# UniProt Q13451, 42-130 limits assumed: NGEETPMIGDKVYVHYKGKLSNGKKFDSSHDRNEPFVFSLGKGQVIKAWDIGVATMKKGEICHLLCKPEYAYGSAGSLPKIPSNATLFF
# UniProt Q02790, 50-138 limits assumed: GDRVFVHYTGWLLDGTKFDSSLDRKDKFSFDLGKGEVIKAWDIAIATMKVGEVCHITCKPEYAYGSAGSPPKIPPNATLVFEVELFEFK
# pKi: −log10 of the molar value.
# Assays:
# FKBP51 = FKBP51 (Homo sapiens, UniProt Q13451); assay: Fluorescence polarization (FP) assay, binding to the FK506-binding domain of FKBP51; settings: read-out: FKBP51 Ki; FK506-binding domain of FKBP51 (FKBP51FK1), competition with fluorescent ligand 2b
# Protocol: (§1) In the present invention, in vitro fluorescence polarization assays with the compounds of the general formula (I) were performed to determine the binding affinities to FKBP51 and FKBP52 or to the isolated FK506-binding domains of FKBP51 and FKBP52 ([…]). Binding to the isolated FK506-binding domains is reliably indicative of binding to the full length proteins. The affinities for the isolated FK506-binding domains and for full-length FKBP51 or FKBP52 are the same for all compounds tested so far (Kozany et al, ChemBioChem 2009, 10, 1402-1410).
# (§2) Example 11: Fluorescence Polarization (FP) Assays
# (§3) In-vitro fluorescence polarization assays were performed to determine the binding affinities for FKBP51 and 52 according to a literature procedure (Kozany, C.; Marz, A.; Kress, C.; Hausch, F., Fluorescent probes to characterise FK506-binding proteins. Chembiochem 2009, 10, (8), 1402-10).
# (§4) For fluorescence polarization assays the fluorescent ligand 2b was dissolved in HEPES (20 mm, pH 8), Triton-X100 (0.01%), at double the concentration required for the final sample. […]
# (§5) The samples were transferred to black 384-well assay plates (No.: 3575; Corning Life Sciences). After incubation at room temperature for 30 min the fluorescence anisotropy was measured (GENios Pro, Tecan, Männedorf, Switzerland) by using an excitation filters of 485/20 nm and emission filters of 535/25 nm. […]
# FKBP52 = FKBP52 (Homo sapiens, UniProt Q02790); assay: Fluorescence polarization (FP) assay, binding to the FK506-binding domain of FKBP52; settings: read-out: FKBP52 Ki; FK506-binding domain of FKBP52 (FKBP52FK1), competition with fluorescent ligand 2b
# Protocol: as §1, §2, §3, §4, §5
smiles,measurement,setting,value
COCCN1C[C@H](CC(C)O)[C@H]2CCC[C@@H](C1=O)N2S(=O)(=O)c1cc(Cl)cc(Cl)c1 (some centres unmarked),pKi,FKBP51,6.30 to 7.00
same,pKi,FKBP52,> 7.00
